Reference: US20010056085A1, “Methods of using vesicant drug formulations” (priority 1996, published 2001)

Key:
[1] = Half-life of ADR destruction by UVA light in the presence of test compounds (decrease in absorbance at 480 nm); type: physicochemical; settings: for Half-Life of ADR Destruction, 100 μM Test Compound and 0.5 μM Riboflavin / Half-Life of ADR Destruction, 100 μM Test Compound: UVA light; for half-life (FIG. 32): compound alone; for half-life (FIG. 32) in the presence of riboflavin: compound in combination with riboflavin
[2] = two 15 W tubes emitting 365 nm light, no photosensitizer; cited from earlier work
[3] = Effect of UVA irradiation on the absorbance spectrum of DOX (350-600 nm; KDOX at 480 nm); type: physicochemical; settings: 5 mM DABCO, 20 μM DOX
[4] = 100 μM test compound with 0.5 μM riboflavin
[5] = with 0.5 μM riboflavin, +4% DMSO

| Compound | Half-Life of ADR Destruction, 100 μM Test Compound and 0.5 μM Riboflavin [1, 4] [min] | Half-Life of ADR Destruction, 100 μM Test Compound ([1]; 100 μM test compound alone) [min] | other results |
| --- | --- | --- | --- |
| Nc1ccccc1O | 100.3 |  |  |
| c1ccc2[nH]ncc2c1 | 33.5 |  |  |
| NCCc1ccccc1 | 50.2 |  |  |
| CN(C)n1cccc1 | 30.7 |  |  |
| O=C(O)c1ccc(O)c(O)c1 | 100.3 |  |  |
| Cc1cccc(C)c1N | 33.5 |  |  |
| daunomycin |  |  | half-time for inactivation [2]: 9 h |
| Cc1ccccc1N | 18.8 |  |  |
| Brc1ccc2[nH]c3ccc(Br)cc3c2c1 |  |  | Half-Life of ADR Destruction, 100 μM Test Compound and 0.5 μM Riboflavin [1, 5]: 50.2 min |
| C=CCc1ccc2c(c1)OCO2 | 37.6 | 50.2 |  |
| Cc1cc(C)c(N)cc1C | 20.1 |  |  |
| COc1cc(C=CC(=O)O)cc(OC)c1 | 5.28 | 50.2 |  |
| CN(C)Cc1c[nH]c2ccccc12 | 8.36 |  |  |
| O=CCCc1ccccc1 | 50.2 | 50.2 |  |
| c1ccc2c(c1)[nH]c1ccccc12 |  |  | Half-Life of ADR Destruction, 100 μM Test Compound ([1]; test compound alone, +4% DMSO): 27.4 min |
| Cc1nccc2c1[nH]c1ccccc12 | 12.5 | 13.7 |  |
| Nc1cccc(-c2ccccc2)c1 | 21.5 | 50.2 |  |
| Doxorubicin HCl |  |  | half-time for inactivation [2]: 9 h |
| c1ccc2c(c1)[nH]c1cnccc12 | 29.3 ± 5.9 | 25.1 |  |
| O=C(c1ccccc1)c1cccnc1 | 12.0 | 13.7 |  |
| Cn1c(=O)[nH]c(=O)c2[nH]cnc21 | 16.7 | 50.2 |  |

| Compound | Half-Life of ADR Destruction, 100 μM Test Compound and 0.5 μM Riboflavin [1, 4] [min] | Half-Life of ADR Destruction, 100 μM Test Compound ([1]; 100 μM test compound alone) [min] | other results |
| --- | --- | --- | --- |
| Nc1ccc(-c2ccc(N)cc2)cc1 | 50.2 |  |  |
| Nc1ccc(O)cc1 | 301.0 |  |  |
| Nc1ccc([N+](=O)[O-])cc1 | 17.7 |  |  |
| Nc1ccc(C(=O)O)c(O)c1 | 60.2 |  |  |
| O=Cc1ccccc1 | 50.2 | 60.2 |  |
| O=C(O)CCc1ccccc1 | 43.0 | 60.2 |  |
| CC(=O)c1ccc(N)cc1 | 37.6 |  |  |
| NCCc1c[nH]c2ccccc12 | 33.5 |  |  |
| c1ccc2[nH]ccc2c1 | 15.8 | 50.2 |  |
| Cc1cccc(N)c1C | 27.4 |  |  |
| 4-Hydroxyquinolinone | 15.8 | 21.5 |  |
| NCC(O)c1ccccc1 (stereo not drawn) | 75.3 |  |  |
| Nc1c(F)cc(F)cc1F | 30.1 |  |  |
| Nc1ccc(Cc2ccc(N)cc2)cc1 | 50.2 |  |  |
| CN(C)c1ccc(N)cc1 | 301.0 |  |  |
| [O-][S+](c1ccccc1)c1ccccc1 | 43.0 | 50.2 |  |
| O=C1c2ccccc2C(=O)c2cc(S(=O)(=O)O)ccc21 |  | 0.124 |  |
| CNc1ccccc1 | 100.3 |  |  |
| O=S(=O)(c1ccccc1)c1ccccc1 | 37.6 | 43.0 |  |
| Nc1ccccc1-c1ccccc1 | 15.8 |  |  |
| Nc1ccccc1 | 15.9 ± 10.3 |  |  |

| Compound | Half-Life of ADR Destruction, 100 μM Test Compound and 0.5 μM Riboflavin [1, 4] [min] | Half-Life of ADR Destruction, 100 μM Test Compound ([1]; 100 μM test compound alone) [min] | other results |
| --- | --- | --- | --- |
| O=C(O)COc1ccc(Cl)cc1Cl | 43.0 | 60.2 | half-life (FIG. 32) [1]: 60.2; half-life (FIG. 32) in the presence of riboflavin [1]: 43.0 |
| COc1cc(C=CC(=O)O)cc(OC)c1OC | 11.6 | 43.0 |  |
| CN(C)c1ccc(N(C)C)cc1 | 301.0 |  |  |
| Nc1ccc(-c2ccccc2)cc1 | 5.68 |  |  |
| Oc1ccccc1 | 50.2 |  |  |
| N#CCc1c[nH]c2ccccc12 | 8.36 |  |  |
| CCc1ccccc1N | 17.7 |  |  |
| COc1ccccc1N | 13.1 |  |  |
| Nc1ccc(C(F)(F)F)cc1 | 12.0 |  |  |
| c1ccc2c(c1)CCNC2 | 75.3 |  |  |
| Nc1ccc(Oc2ccc(N)cc2)cc1 | 60.2 |  |  |
| c1ccc2c(c1)oc1ccccc12 | 50.2 |  |  |
| C[S+]([O-])c1ccccc1 (stereo not drawn) | 33.5 | 42.0 |  |
| O=C(O)c1ccc2c(c1)C(=O)c1ccccc1C2=O | 1.57 | 1.64 |  |
| CN(C)c1ccccc1 | 150.5 |  |  |
| Nc1cccc(C(F)(F)F)c1 | 18.8 |  |  |
| O=CC=Cc1ccccc1 | 50.2 | 50.2 |  |
| O=C(O)COc1ccccc1 | 30.1 | 33.5 | half-life (FIG. 32) [1]: 33.5; half-life (FIG. 32) in the presence of riboflavin [1]: 30.1 |
| Nc1ccccc1C(=O)O | 75.3 |  |  |
| O=c1c2ccccc2[nH]c2ccccc12 |  |  | Half-Life of ADR Destruction, 100 μM Test Compound ([1]; test compound alone, +8% DMSO): 20.1 min; Half-Life of ADR Destruction, 100 μM Test Compound and 0.5 μM Riboflavin ([1]; with 0.5 μM riboflavin, +8% DMSO): 15.1 min |
| CC(=O)c1ccccc1N | 15.1 |  |  |

| Compound | Half-Life of ADR Destruction, 100 μM Test Compound and 0.5 μM Riboflavin [1, 4] [min] | Half-Life of ADR Destruction, 100 μM Test Compound ([1]; 100 μM test compound alone) [min] | other results |
| --- | --- | --- | --- |
| Cc1ccc(N)cc1 | 21.5 |  |  |
| CN[C@@H](Cc1c[nH]c2ccccc12)C(=O)O | 10.4 |  |  |
| COc1ccc(C(=O)c2ccccc2)cc1 | 25.1 | 37.6 |  |
| Nc1ccc2c(c1)Cc1ccccc1-2 | 25.1 |  |  |
| COc1ccccc1C(=O)O | 33.5 | 43.0 |  |
| NCCc1ccc(N)cc1 | 6.56 ± 2.28 | 46.6 ± 5.1 |  |
| O=C1c2ccccc2C(=O)c2ccccc21 |  |  | Half-Life of ADR Destruction, 100 μM Test Compound ([1]; test compound alone, +4% DMSO): 3.27 min; Half-Life of ADR Destruction, 100 μM Test Compound and 0.5 μM Riboflavin [1, 5]: 1.62 min |
| COc1cc(/C=C/CO)cc(OC)c1O[C@@H]1O[C@H](CO)[C@@H](O)[C@H](O)[C@H]1O | 37.6 | 50.2 |  |
| Oc1cc(O)c2ccccc2n1 | 60.2 | 60.2 |  |
| Nc1cccc([N+](=O)[O-])c1 | 27.4 |  |  |
| Nc1cccc2c1Cc1ccccc1-2 | 43.0 | 60.2 |  |
| OC(=S)Cc1ccccc1 | 27.4 | 37.6 | half-life (FIG. 32) [1]: 37.6; half-life (FIG. 32) in the presence of riboflavin [1]: 27.4 |
| COc1ccc(CCN)cc1 | 33.9 | 60.2 |  |
| Nc1ccccc1[N+](=O)[O-] | 27.4 | 60.2 |  |
| COc1ccc(N)cc1 | 50.2 |  |  |
| Nc1ccc(N)cc1 | 301.0 |  |  |
| C1CN2CCN1CC2 |  |  | effect on destruction of DOX by FAD and UVA ([3]; 20 μM FAD in PBS lacking Ca2+ and Mg2+): considerably enhanced the effect of FAD-UVA on DOX; effect on destruction of DOX by riboflavin and UVA ([3]; 2 or 20 μM riboflavin in PBS): further accelerates the destruction of DOX |
| O=C(O)C1c2ccccc2Oc2ccccc21.O=C(O)c1ccccc1 | 8.36 | 10.8 |  |
